One data set in a line: in vitro. The following applies: human, HEp-2 cells.
The test system of the next data set is hRSV strain Long. The data set can be described thus: hRSV CPE assay. The class given is cell-based, human respiratory syncytial virus. The following applies: HEp-2 CC50 / RSV CPE EC50.

As a reminder, the CC50 is the concentration that lowers cell viability or growth by half. A high value points to lower toxicity to the cells. As for `COCCCNC(=O)c1ccc(Cn2c(=O)c3ccccc3n(Cc3ccccc3Br)c2=O)cc1` [Compound 8, 4-((1-(2-Bromobenzyl)-2,4-dioxo-1,2-dihydroquinazolin-3(4H)-yl)methyl)-N-(3-methoxypropyl)benzamide], the CC50 at 5 days in the data set “in vitro” amounted to 8.2 ± 0.2 µM. Moreover, the “selectivity index (CC50/EC50)” value in the data set on hRSV strain Long is reported as less than 0.2.

With `COCCCNC(=O)c1ccc(Cn2c(=O)c3ccccc3n(Cc3cccc(Br)c3)c2=O)cc1` [Compound 9, 4-((1-(3-Bromobenzyl)-2,4-dioxo-1,2-dihydroquinazolin-3(4H)-yl)methyl)-N-(3-methoxypropyl)benzamide], the CC50 at 5 days in “in vitro” was found to be 3.7 ± 0.4 µM.

The molecule `COCCCNC(=O)c1ccc(Cn2c(=O)c3ccccc3n(Cc3ccc(Br)cc3)c2=O)cc1` [Compound 10, 4-((1-(4-Bromobenzyl)-2,4-dioxo-1,2-dihydroquinazolin-3(4H)-yl)methyl)-N-(3-methoxypropyl)benzamide] registered a CC50 at 5 days in “in vitro” of more than 50 µM. Besides, the “selectivity index (CC50/EC50)” value in the data set on hRSV strain Long was more than 55.6.

Molecule `COCCCNC(=O)c1ccc(Cn2c(=O)c3ccccc3n(Cc3ccc(F)cc3)c2=O)cc1` [Compound 12, 4-((1-(4-Fluorobenzyl)-2,4-dioxo-1,2-dihydroquinazolin-3(4H)-yl)-methyl)-N-(3-methoxypropyl)benzamide] showed a CC50 at 5 days in “in vitro” of 7.6 ± 0.2 µM.

As to `COCCCNC(=O)c1ccc(Cn2c(=O)c3ccccc3n(Cc3ccc(Cl)cc3)c2=O)cc1` [Compound 13, 4-((1-(4-Chlorobenzyl)-2,4-dioxo-1,2-dihydroquinazolin-3(4H)-yl)methyl)-N-(3-methoxypropyl)benzamide], the CC50 at 5 days in “in vitro” is more than 50 µM. For the same molecule, the “selectivity index (CC50/EC50)” value in the data set on hRSV strain Long is more than 7.5.

Turning to `COCCCNC(=O)c1ccc(Cn2c(=O)c3ccccc3n(Cc3ccc(OC)cc3)c2=O)cc1` [Compound 14, 4-((1-(4-Methoxybenzyl)-2,4-dioxo-1,2-dihydroquinazolin-3(4H)-yl)methyl)-N-(3-methoxypropyl)benzamide], the CC50 at 5 days in the data set “in vitro” is more than 50 µM. The “selectivity index (CC50/EC50)” value in the data set with hRSV strain Long is reported as more than 25.0.

For `COCCCNC(=O)c1ccc(Cn2c(=O)c3ccccc3n(Cc3ccc(C(F)(F)F)cc3)c2=O)cc1` [Compound 16, 4-((2,4-Dioxo-1-(4-(trifluoromethyl)benzyl)-1,2-dihydroquinazolin-3(4H)-yl)methyl)-N-(3-methoxypropyl)benzamide], the CC50 at 5 days in the data set “in vitro” is more than 50 µM. Besides, the “selectivity index (CC50/EC50)” value with hRSV strain Long is on record as more than 38.5.

Molecule `COCCCNC(=O)c1ccc(Cn2c(=O)c3ccccc3n(Cc3ccc(C#N)cc3)c2=O)cc1` [Compound 17, 4-((1-(4-Cyanobenzyl)-2,4-dioxo-1,2-dihydroquinazolin-3(4H)-yl)methyl)-N-(3-methoxypropyl)benzamide] had a CC50 at 5 days in “in vitro” of 12.5 ± 1.2 µM. Further, the “selectivity index (CC50/EC50)” value with hRSV strain Long was determined as 7.7.

For the molecule `CCc1ccc(Cn2c(=O)n(Cc3ccc(C(=O)NCCCOC)cc3)c(=O)c3ccccc32)cc1` [Compound 18, 4-((1-(4-Ethylbenzyl)-2,4-dioxo-1,2-dihydroquinazolin-3(4H)-yl)-methyl)-N-(3-methoxypropyl)benzamide], the CC50 at 5 days in the data set “in vitro” was more than 50 µM.

`COCCCNC(=O)c1ccc(Cn2c(=O)c3ccccc3n(Cc3ccc4nonc4c3)c2=O)cc1` [Compound 20, 4-((1-(Benzo[c][1,2,5]oxadiazol-5-ylmethyl)-2,4-dioxo-1,2-dihydroquinazolin-3(4H)-yl)methyl)-N-(3-methoxypropyl)benzamide] returned a CC50 at 5 days in the data set “in vitro” of more than 50 µM. Besides, the “selectivity index (CC50/EC50)” value in the data set on hRSV strain Long is listed as more than 10.2.

As for `COCCCNC(=O)c1ccc(Cn2c(=O)c3ccccc3n(Cc3cc(C)on3)c2=O)cc1` [Compound 21, N-(3-Methoxypropyl)-4-((1-((5-methylisoxazol-3-yl)methyl)-2,4-dioxo-1,2 dihydroquinazolin-3(4H)-yl)methyl)benzamide], half-maximal cytotoxicity in the data set “in vitro” (CC50 at 5 days) was put at 7.7 ± 0.7 µM. In the data set with hRSV strain Long, the “selectivity index (CC50/EC50)” value was less than 0.2.

`COCCCNC(=O)c1ccc(Cn2c(=O)c3ccccc3n(Cc3ccccn3)c2=O)cc1` [Compound 22, 4-((2,4-Dioxo-1-(pyridin-2-ylmethyl)-1,2-dihydroquinazolin-3(4H)-yl)methyl)-N-(3-methoxypropyl)benzamide] gave a CC50 at 5 days in “in vitro” of 16 ± 0.3 µM. Besides, the “selectivity index (CC50/EC50)” value in the data set on hRSV strain Long is on record as less than 0.3.

`COCCCNC(=O)c1ccc(Cn2c(=O)c3ccccc3n(Cc3cccnc3)c2=O)cc1` [Compound 23, 4-((2,4-Dioxo-1-(pyridin-3-ylmethyl)-1,2-dihydroquinazolin-3(4H)-yl)methyl)-N-(3-methoxypropyl)benzamide]: in “in vitro”, the CC50 at 5 days stood at 8 ± 0.3 µM. Besides, the “selectivity index (CC50/EC50)” value with hRSV strain Long was less than 0.2.

In the data set “in vitro”, `CCOCCCNC(=O)c1ccc(Cn2c(=O)c3ccccc3n(Cc3ccc(C)cc3)c2=O)cc1` [Compound 24, N-(3-Ethoxypropyl)-4-((1-(4-methylbenzyl)-2,4-dioxo-1,2-dihydroquinazolin-3(4H)-yl)methyl)benzamide] had a CC50 at 5 days of 8.5 ± 0.3 µM.

`Cc1ccc(Cn2c(=O)n(Cc3ccc(C(=O)NCCCOC(C)C)cc3)c(=O)c3ccccc32)cc1` [Compound 25, N-(3-Isopropoxypropyl)-4-((1-(4-methylbenzyl)-2,4-dioxo-1,2-dihydroquinazolin-3(4H)-yl)methyl)benzamide] displayed a CC50 at 5 days in “in vitro” of 19.3 ± 0.9 µM.

`Cc1ccc(Cn2c(=O)n(Cc3ccc(C(=O)NCCCN(C)C)cc3)c(=O)c3ccccc32)cc1` [Compound 26, N-(3-(Dimethylamino)propyl)-4-((1-(4-methylbenzyl)-2,4-dioxo-1,2-dihydroquinazolin-3(4H)-yl)methyl)benzamide] registered a CC50 at 5 days in “in vitro” of 16.6 ± 1.5 µM.

For `COCCCCNC(=O)c1ccc(Cn2c(=O)c3ccccc3n(Cc3ccc(C)cc3)c2=O)cc1` [Compound 27, N-(4-Methoxybutyl)-4-((1-(4-methylbenzyl)-2,4-dioxo-1,2-dihydroquinazolin-3(4H)-yl)methyl)benzamide], in the data set “in vitro”, it took 6.5 ± 0.3 µM to reach half-maximal cytotoxicity (CC50 at 5 days). The “selectivity index (CC50/EC50)” value with hRSV strain Long was 7.8.

Turning to `COCCNC(=O)c1ccc(Cn2c(=O)c3ccccc3n(Cc3ccc(C)cc3)c2=O)cc1` [Compound 28, N-(2-Methoxyethyl)-4-((1-(4-methylbenzyl)-2,4-dioxo-1,2-dihydroquinazolin-3(4H)-yl)methyl)benzamide], the CC50 at 3 days in the data set “in vitro” is more than 50 µM.

In turn, `Cc1ccc(Cn2c(=O)n(Cc3ccc(C(=O)NCC4COC4)cc3)c(=O)c3ccccc32)cc1` [Compound 29, 4-((1-(4-Methylbenzyl)-2,4-dioxo-1,2-dihydroquinazolin-3(4H)-yl)methyl)-N-(oxetan-3-ylmethyl)benzamide] returned a CC50 at 5 days in the data set “in vitro” of 47 ± 1.9 µM.

In the data set “in vitro”, `Cc1ccc(Cn2c(=O)n(Cc3ccc(C(=O)NCC4CCC4)cc3)c(=O)c3ccccc32)cc1` [Compound 30, N-(Cyclobutylmethyl)-4-((1-(4-methylbenzyl)-2,4-dioxo-1,2-dihydroquinazolin-3(4H)-yl)methyl)benzamide] gave a CC50 at 5 days of 7.6 ± 0.3 µM. The “selectivity index (CC50/EC50)” value in the data set with hRSV strain Long is listed as 7.9.

As for `Cc1ccc(Cn2c(=O)n(Cc3ccc(C(=O)N4CCOCC4)cc3)c(=O)c3ccccc32)cc1` [Compound 31, 1-(4-Methylbenzyl)-3-(4-(morpholine-4-carbonyl)benzyl)-quinazoline-2,4(1H,3H)-dione], it took 17.5 ± 1.1 µM to reach half-maximal cytotoxicity in “in vitro” (CC50 at 5 days). Further, in the data set on hRSV strain Long, the “selectivity index (CC50/EC50)” value is reported as less than 0.4.

`Cc1ccc(Cn2c(=O)n(Cc3ccc(C(=O)N4CCCC4)cc3)c(=O)c3ccccc32)cc1` [Compound 32, 1-(4-Methylbenzyl)-3-(4-(pyrrolidine-1-carbonyl)benzyl)-quinazoline-2,4(1H,3H)-dione] came in with a CC50 at 5 days in the data set “in vitro” of 5.4 ± 0.3 µM. In addition, in the data set on hRSV strain Long, the “selectivity index (CC50/EC50)” value was less than 0.1.

In turn, `Cc1ccc(Cn2c(=O)n(Cc3ccc(C(=O)N4CCCCC4)cc3)c(=O)c3ccccc32)cc1` [Compound 33, 1-(4-Methylbenzyl)-3-(4-(piperidine-1-carbonyl)benzyl)-quinazoline-2,4(1H,3H)-dione] returned a CC50 at 5 days in the data set “in vitro” of 7.3 ± 1.3 µM. Also, the “selectivity index (CC50/EC50)” value in the data set on hRSV strain Long is less than 0.2.

Take `Cc1ccc(Cn2c(=O)n(Cc3ccc(C(=O)NC(C)(C)C)cc3)c(=O)c3ccccc32)cc1` [Compound 36, N-(tert-Butyl)-4-((1-(4-methylbenzyl)-2,4-dioxo-1,2-dihydroquinazolin-3(4H)-yl)methyl)benzamide]: in the data set “in vitro”, the CC50 at 5 days worked out at 8.4 ± 0.3 µM.

In the data set “in vitro”, `Cc1ccc(Cn2c(=O)n(Cc3ccc(C(=O)NC4CCCCC4)cc3)c(=O)c3ccccc32)cc1` [Compound 37, N-Cyclohexyl-4-((1-(4-methylbenzyl)-2,4-dioxo-1,2-dihydroquinazolin-3(4H)-yl)methyl)benzamide] had a CC50 at 5 days of more than 50 µM.

`Cc1ccc(Cn2c(=O)n(Cc3ccc(C(=O)Nc4ccccc4)cc3)c(=O)c3ccccc32)cc1` [Compound 38, 4-((1-(4-Methylbenzyl)-2,4-dioxo-1,2-dihydroquinazolin-3(4H)-yl)methyl)-N-phenylbenzamide] showed a CC50 at 5 days in the data set “in vitro” of more than 50 µM.

Take `Cc1ccc(Cn2c(=O)n(Cc3ccc(C(=O)NCc4ccccc4)cc3)c(=O)c3ccccc32)cc1` [Compound 39, N-Benzyl-4-((1-(4-methylbenzyl)-2,4-dioxo-1,2-dihydroquinazolin-3(4H)-yl)methyl)benzamide]: the midpoint of cytotoxicity in the data set “in vitro”, the CC50 at 5 days, lay at 41.8 ± 7.9 µM.

Molecule `Cc1ccc(Cn2c(=O)n(Cc3ccc(C(=O)NCc4ccco4)cc3)c(=O)c3ccccc32)cc1` [Compound 40, N-(Furan-2-ylmethyl)-4-((1-(4-methylbenzyl)-2,4-dioxo-1,2-dihydroquinazolin-3(4H)-yl)methyl)benzamide] came in with a CC50 at 5 days in “in vitro” of more than 50 µM.

In the data set “in vitro”, `Cc1ccc(Cn2c(=O)n(Cc3ccc(C(=O)Nc4nccs4)cc3)c(=O)c3ccccc32)cc1` [Compound 41, 4-((1-(4-Methylbenzyl)-2,4-dioxo-1,2-dihydroquinazolin-3(4H)-yl)methyl)-N-(thiazol-2-yl)benzamide] displayed a CC50 at 5 days of more than 50 µM.

The molecule `Cc1ccc(Cn2c(=O)n(Cc3ccc(C(=O)Nc4ccncc4)cc3)c(=O)c3ccccc32)cc1` [Compound 42, 4-((1-(4-Methylbenzyl)-2,4-dioxo-1,2-dihydroquinazolin-3(4H)-yl)methyl)-N-(pyridin-4-yl)benzamide] registered a CC50 at 5 days in “in vitro” of 1.8 ± 0.4 µM.

Molecule `CC(C)(C)c1ccc(Cn2c(=O)n(Cc3ccc(C(=O)NCC4COC4)cc3)c(=O)c3ccccc32)cc1` [Compound 47, 4-((1-(4-tert-Butylbenzyl)-2,4-dioxo-1,2-dihydroquinazolin-3(4H)-yl)methyl)-N-(oxetan-3-ylmethyl)benzamide] had a CC50 at 5 days in the data set “in vitro” of 3.7 ± 0.3 µM. Against the preceding molecule, the CC50 at 5 days is about 2.1-fold higher.
